## Ab-95 light chain CDR variants: yeast mating affinities

Reference: Engelhart et al. 2022, doi:10.1038/s41597-022-01779-4. File: FLAb, binding data.

Target: peptide PDVDLGDISGINAS, taken from heptad repeat 2 (HR2) of SARS-CoV-2 spike.

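Phage display of a naive human antibody library on the peptide gave the parent. Library AAYL52 holds single substitutions and randomly drawn double and triple substitutions in the CDRs. The scFvs were displayed on barcoded MATa yeast, the peptide on MATalpha yeast. After mating in shaken culture at 30 °C for 16 h, diploids were selected and their barcode pairs sequenced. The ratio of observed to expected reads was calibrated, replicate by replicate, on BCL2-family standards whose Kd was known from biolayer interferometry. Mating was done three times.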

The variants keep the heavy chain, the linker and the frameworks of Ab-95 (scFv order VH, the linker GGGGSGGGGSGGGGS, VL).
VH: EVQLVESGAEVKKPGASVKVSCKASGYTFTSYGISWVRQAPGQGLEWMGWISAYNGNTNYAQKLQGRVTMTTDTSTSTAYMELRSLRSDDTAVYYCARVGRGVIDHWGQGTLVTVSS
VL: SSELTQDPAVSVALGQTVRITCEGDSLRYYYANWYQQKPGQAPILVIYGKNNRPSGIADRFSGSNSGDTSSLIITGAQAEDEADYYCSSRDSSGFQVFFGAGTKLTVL

The parent's light chain CDRs are EGDSLRYYYAN, GKNNRPS, SSRDSSGFQVF; each variant's own CDRs replace them letter for letter. Scale: log10 of Kd in nM, estimated from mating counts; low values are strong binders. A pair that was not seen in that replicate is written "nd"; this usually means weak binding, but a binder can also be missed. Parent in this assay: reference entry 2.31, copy in this library 2.25.

With EGDSLRYYYAN | NKNNRPI | SSRDSDGFQVF the result was 5.13, 3.68, 2.76 (controls 3 of 9).
With EGDSLRYYYAN | GKNVRPS | ASRDNSGFQVF the result was 2.85, 3.44, 3.21 (controls 1 of 9).
With EGDSLRYYYAN | GKNNRPS | SPRDKSGFQVH the result was nd, nd, nd (controls 0 of 9).
With EHDSLRCYYAN | GKNNRPS | SSRCSSGFQVF the result was nd, nd, 3.38 (controls 3 of 9).
With EGDSLRYQYAN | GKNNRPS | SSRDVSGFQVF the result was 0.86, 0.96, 0.42 (controls 5 of 9).
With ELDSLRYYRAN | GKNNRPS | SSRDSKGFQVF the result was 4.87, nd, nd (controls 4 of 9).
With FGDSLRYYYAN | GKPNRPS | SSRDSSGFYVF the result was 4.13, nd, nd (controls 2 of 9).
With EGDSLRYYYAN | GPNNRPS | SIRDSSGFQVF the result was 2.40, 2.85, 3.03 (controls 4 of 9).
With EGDSLKYYYAN | GKNNRPS | SSRDTSGVQVF the result was 3.09, 2.88, 3.12 (controls 5 of 9).
With EGDSLWYYYAN | GKNNRPW | SSIDSSGFQVF the result was 3.14, 3.85, nd (controls 1 of 9).
With EGDSLRYMYAN | GKNNRSS | SSLDSSGFQVF the result was 2.32, 2.57, 2.14 (controls 5 of 9).
With EGDSLNYYYAN | GKNNRPS | SSRDSSGMQEF the result was nd, 4.07, nd (controls 0 of 9).
With EGDSFRYYYAN | TKNNRPS | WSRDSSGFQVF the result was 4.44, nd, nd (controls 4 of 9).
With EGDSLRYYYAN | CKNNRPS | HSRDSSKFQVF the result was nd, 4.53, nd (controls 2 of 9).
With EGDSLRYYYAN | GHNNRYS | SSRDISGFQVF the result was 3.41, nd, 3.58 (controls 3 of 9).
With EGDSLRYYQAN | NKNNRPS | SSRDSSGFQVH the result was 2.17, 1.87, 1.94 (controls 1 of 9).
With EGDSLKYYYAN | GKNNRPS | SSRDSHGFEVF the result was 2.81, 2.54, 2.01 (controls 4 of 9).
With EGDSLRYCYAM | GKNNRPS | SSRDSEGFQVF the result was 3.50, 3.89, 3.44 (controls 1 of 9).
With EGDSLRYYYAN | GKNNRPS | MSRFSSGFQVF the result was 4.05, nd, 3.79 (controls 1 of 9).
With EGDSLWYYYAN | PKNNRPS | SSRDSSGFQVF the result was 3.40, 3.47, 3.95 (controls 1 of 9).
With EGDSLRYYYAN | GANNRPS | SSRDSSGFTVF the result was 3.00, 3.61, 2.72 (controls 0 of 9).
With EGDSLDYYYAN | GENNRPS | SSRDSSGFQCF the result was 2.14, 2.87, 3.02 (controls 6 of 9).
With EGDCLRYYYAN | GKNNRPS | SSTDSYGFQVF the result was nd, nd, nd (controls 1 of 9).
With EGDSLRYYYAN | GKNNYPS | SSRDSSGFPVF the result was 3.20, 5.41, nd (controls 0 of 9).
With EGDSLRQYYAV | GKNNRPS | SSRDSSGFFVF the result was nd, 3.57, nd (controls 3 of 9).
With EGDSLRVYYAN | GKNNRPS | VSRDSSPFQVF the result was nd, nd, nd (controls 2 of 9).
With EGDSLRYYYQN | DTNNRPS | SSRDSSGFQVF the result was nd, 4.66, nd (controls 2 of 9).
With EGDDLRYGYFN | GKNNRPS | SSRDSSGFQVF the result was 2.10, 2.51, 1.82 (controls 3 of 9).
With EGEDLRYYYAN | GKNNRPS | SSRDSSGFQVG the result was 2.76, 2.48, 2.16 (controls 2 of 9).
With EGDTQRYYYAN | GKGNRPS | SSRDSSGFQVF the result was nd, nd, 3.25 (controls 1 of 9).
With EGDSLRNYYAN | GKNVRPS | SGRDSSGFQVF the result was 2.62, 2.95, 1.94 (controls 0 of 9).
With FGDSLRYYYAN | GKNNRPS | SSRDSSGFDVM the result was 3.47, 2.59, 2.86 (controls 5 of 9).
With EGDSLRYYYAN | GKNQRPS | SSRDSSGFQVR the result was 1.95, 1.86, 1.69 (controls 6 of 9).
With EYDSLRYYYAN | GKNNRPS | SSRDSSGFVVN the result was 5.23, nd, 4.46 (controls 2 of 9).
With EGDSLRYYYAN | GKNNRPS | ASRDSSGFQVK the result was 3.28, 3.17, 2.83 (controls 1 of 9).
With EGDSLRYYMAN | GINNRPS | SSRDSSGFQVF the result was 2.40, 2.50, 2.36 (controls 3 of 9).
With EGDSWRYYYAN | GKPNRNS | SSRDSSGFQVF the result was nd, nd, nd (controls 1 of 9).
With EQDSRRYYRAN | GKNNRPS | SSRDSSGFQVF the result was 3.96, nd, nd (controls 1 of 9).
With EWDSLRYYYAN | GKNNRSS | SSRDSSGFQVF the result was 2.34, 2.24, 1.81 (controls 2 of 9).
With EGDSLRMYYAN | GKNNRPS | SSRDSMGFQVF the result was 3.16, 2.30, 2.76 (controls 3 of 9).
With EGDSLRYYYAF | GKNNRPS | SSRDSSTFSVF the result was 4.57, 4.70, 3.60 (controls 6 of 9).

Excerpt, the final 4 entries:

CDR-L1	CDR-L2	CDR-L3	log10 Kd, replicates	control signals
EQDSRRYYRAN	GKNNRPS	SSRDSSGFQVF	3.96, nd, nd	1/9
EWDSLRYYYAN	GKNNRSS	SSRDSSGFQVF	2.34, 2.24, 1.81	2/9
EGDSLRMYYAN	GKNNRPS	SSRDSMGFQVF	3.16, 2.30, 2.76	3/9
EGDSLRYYYAF	GKNNRPS	SSRDSSTFSVF	4.57, 4.70, 3.60	6/9

As a blank, each scFv also met three strains without target: over library AAYL52, 28% of these pairings were detected, typically at 3.91 and seldom below 2.90. Also given: how often the same scFv was detected with the empty control strains.